This is an account of results in PubChem BioAssay AID739 (SRMLSC, 2007).

The list shows a part of the results, in another mix than the full data. Some tests of the compounds listed are not included; inactive here does not mean inactive elsewhere. Active and inactive are the calls of the source. Rule as the data show it: active = inhibition above about 30%; inactive = the rest.

The nature of this assay: phenotypic screen on post-Golgi transport, primary screen (AID 739).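 Also: yeast cells grown in 1536-well plates; yeast grown about 18 h at 30C before absorbance read.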 The note with it: post-Golgi transport phenotypic cell assay; at 10 µM; hits give high values.
In the case of `CN(C)c1cccc(C(=O)NCC2(N(C)C)CCCCC2)c1`, the inhibition is inactive: -3.26%. Under `O=C(OC1CN2CCC1CC2)C(CO)(c1ccccc1)c1ccccc1` (stereo not drawn) stands inactive: -0.46%; under `CC(C)N1C(=O)CC2(CCN(CCOC(=O)C(O)(c3ccccc3)c3ccccc3)CC2)C1=O`, inactive: -2%.

Usually inhibition stands for the relative decrease from the control value, in per cent.
